# Data from patent US6953793B2 (priority 2000, dated 2005).
# Protein sequences, listed by entry. Tags and fused reporters are not part of them. Residues count along the entry.
# UniProt P25774, 115-331: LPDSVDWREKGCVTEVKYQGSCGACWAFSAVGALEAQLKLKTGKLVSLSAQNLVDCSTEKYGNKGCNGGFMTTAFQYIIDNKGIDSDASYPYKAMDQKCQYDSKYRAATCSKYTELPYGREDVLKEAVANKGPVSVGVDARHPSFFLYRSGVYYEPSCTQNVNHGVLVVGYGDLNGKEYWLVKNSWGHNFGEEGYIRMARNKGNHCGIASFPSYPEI
# Molecular target: T1, Recombinant human cathepsin S (CatS) (Homo sapiens, UniProt P25774)
# T1 construct: made in house; host or cells: baculovirus system (insect cells)
# Test: biochemical
row,Compound,IC50 [nM]
1,"CS(=O)(=O)N1CCc2c(c(-c3ccc(C(F)(F)F)cc3)nn2CCCN2CCC(N3C(=O)NC4CCCCC43)CC2)C1 (stereo not drawn) [Example 101, 1-(1-{3-[5-Methanesulfonyl-3-(4-trifluoromethyl-phenyl)-4,5,6,7-tetrahydro-pyrazolo[4,3-c]pyridin-1-yl]-propyl}-piperidin-4-yl)-octahydro-benzoimidazol-2-one]",510
2,"COc1ccc2c(n1)n(C1CCN(CCCn3nc(-c4ccc(C(F)(F)F)cc4)c4c3CCN(S(C)(=O)=O)C4)CC1)c(=O)n2C [Example 337, 3-(1-{3-[5-Methanesulfonyl-3-(4-trifluoromethyl-phenyl)-4,5,6,7-tetrahydro-pyrazolo[4,3-c]pyridin-1-yl]-propyl}-piperidin-4-yl)-5-methoxy-1-methyl-1,3-dihydro-imidazo[4,5-b]pyridin-2-one]",100
3,"CC(=O)N1CCc2c(c(-c3ccc(Cl)c(C)c3)nn2CC(O)CN2CCC(N3c4ccccc4CC3C)CC2)C1 (stereo not drawn) [Example 176, 1-(3-(4-Chloro-3-methyl-phenyl)-1-{2-hydroxy-3-[4-(2-methyl-2,3-dihydro-indol-1-yl)-piperidin-1-yl]-propyl}-1,4,6,7-tetrahydro-pyrazolo[4,3-c]pyridin-5-yl)-ethanone]",830
4,"Cn1c(=O)n(C2CCN(CCCn3nc(-c4ccc(Br)cc4)c4c3CCN(C(=O)Nc3ccccc3)C4)CC2)c2ccccc21 [Example 348, 3-(4-Bromo-phenyl)-1-{3-[4-(3-methyl-2-oxo-2,3-dihydro-benzoimidazol-1-yl)-piperidin-1-yl]-propyl}-1,4,6,7-tetrahydro-pyrazolo[4,3-c]pyridine-5-carboxylic acid phenylamide]",190
5,"CC(=O)N1CCc2c(c(-c3ccc(Br)cc3)nn2C[C@H](O)CN2CCC(n3c(=O)[nH]c4ccccc43)CC2)C1 [Example 284, (R)-1-(1-{3-[5-Acetyl-3-(4-bromo-phenyl)-4,5,6,7-tetrahydro-pyrazolo[4,3-c]pyridin-1-yl]-2-hydroxy-propyl}-piperidin-4-yl)-1,3-dihydro-benzoimidazol-2-one]",260
6,"CC(=O)N1CCc2c(c(-c3ccc(C(F)(F)F)cc3)nn2CC(O)CN2CCC(c3nc4ccccc4s3)CC2)C1 (stereo not drawn) [Example 126, 1-[1-[3-(4-Benzothiazol-2-yl-piperidin-1-yl)-2-hydroxy-propyl]-3-(4-trifluoromethyl-phenyl)-1,4,6,7-tetrahydro-pyrazolo[4,3-c]pyridin-5-yl]-ethanone]",80
7,"CC(C)(C)OC(=O)NS(=O)(=O)N1CCc2c(c(-c3ccc(Br)cc3)nn2CCCN2CCC(n3c(=O)[nH]c4ccccc43)CC2)C1 [Example 365, 3-(4-Bromo-phenyl)-1-{3-[4-(2-oxo-2,3-dihydro-benzoimidazol-1-yl)-piperidin-1-yl]-propyl}-1,4,6,7-tetrahydro-pyrazolo[4,3-c]pyridine-5-sulfonic acid t-butoxycarbonyl-amide]",110
8,"CC(=O)N1CCc2c(c(-c3ccc(Cl)cc3)nn2CC(O)CN2CCC(Nc3cccc(Cl)c3)CC2)C1 (stereo not drawn) [Example 213, 1-(3-(4-Chloro-phenyl)-1-{3-[4-(3-chloro-phenylamino)-piperidin-1-yl]-2-hydroxy-propyl}-1,4,6,7-tetrahydro-pyrazolo[4,3-c]pyridin-5-yl)-ethanone]",1100
9,"CCn1c(=O)n(C2CCN(CC(O)Cn3nc(-c4ccc(Cl)c(C)c4)c4c3CCN(C(C)=O)C4)CC2)c2ccccc21 (stereo not drawn) [Example 261, 1-(1-{3-[5-Acetyl-3-(4-chloro-3-methyl-phenyl)-4,5,6,7-tetrahydro-pyrazolo[4,3-c]pyridin-1-yl]-2-hydroxy-propyl}-piperidin-4-yl)-3-ethyl-1,3-dihydro-benzoimidazol-2-one]",350
10,"CS(=O)(=O)N1CCc2c(c(-c3ccc(C(F)(F)F)cc3)nn2CC(O)CN2CCC(c3nc4ccccc4s3)CC2)C1 (stereo not drawn) [Example 114, 1-(4-Benzothiazol-2-yl-piperidin-1-yl)-3-[5-methanesulfonyl-3-(4-trifluoromethyl-phenyl)-4,5,6,7-tetrahydro-pyrazolo[4,3-c]pyridin-1-yl]-propan-2-ol]",100
11,"NC(=O)N1CCc2c(c(-c3ccc(C(F)(F)F)cc3)nn2CC(O)CN2CCC(n3c(=O)[nH]c4ccccc43)CC2)C1 (stereo not drawn) [Example 269, 1-{2-Hydroxy-3-[4-(2-oxo-2,3-dihydro-benzoimidazol-1-yl)-piperidin-1-yl]-propyl}-3-(4-trifluoromethyl-phenyl)-1,4,6,7-tetrahydro-pyrazolo[4,3-c]pyridine-5-carboxylic acid amide]",120
12,"CC(=O)N1CCc2c(c(-c3ccc(Cl)c(C)c3)nn2CC(O)CN2CCC(n3c(=O)n(CC4CC4)c4ccccc43)CC2)C1 (stereo not drawn) [Example 321, 1-(1-{3-[5-Acetyl-3-(4-chloro-3-methyl-phenyl)-4,5,6,7-tetrahydro-pyrazolo[4,3-c]pyridin-1-yl]-2-hydroxy-propyl}-piperidin-4-yl)-3-cyclopropylmethyl-1,3-dihydro-benzoimidazol-2-one]",80
13,"CC(=O)N1CCc2c(c(-c3ccc(I)cc3)nn2CC(O)CN2CCC(n3c(=O)[nH]c4ccc(F)cc43)CC2)C1 (stereo not drawn) [Example 267, 1-(1-{3-[5-Acetyl-3-(4-iodo-phenyl)-4,5,6,7-tetrahydro-pyrazolo[4,3-c]pyridin-1-yl]-2-hydroxy-propyl}-piperidin-4-yl)-6-fluoro-1,3-dihydro-benzoimidazol-2-one]",280
14,"CCNC(=O)N1CCc2c(c(-c3ccc(C(F)(F)F)cc3)nn2CCCN2CCC(n3c(=O)n(C)c4ccccc43)CC2)C1 [Example 333, 1-{3-[4-(3-Methyl-2-oxo-2,3-dihydro-benzoimidazol-1-yl)-piperidin-1-yl]-propyl}-3-(4-trifluoromethyl-phenyl)-1,4,6,7-tetrahydro-pyrazolo[4,3-c]pyridine-5-carboxylic acid ethylamide]",240
15,"CCn1c(=O)n(C2CCN(CC(O)Cn3nc(-c4ccc(C(F)(F)F)cc4)c4c3CCN(C(C)=O)C4)CC2)c2ccccc21 (stereo not drawn) [Example 301, 1-(1-{3-[5-Acetyl-3-(4-trifluoromethyl-phenyl)-4,5,6,7-tetrahydro-pyrazolo[4,3-c]pyridin-1-yl]-2-hydroxy-propyl}-piperidin-4-yl)-3-ethyl-1,3-dihydro-benzoimidazol-2-one]",180
16,"Cc1cc(-c2nn(CC(O)CN3CCC(n4c(=O)n(CCN5CCOCC5)c5ccccc54)CC3)c3c2CN(S(C)(=O)=O)CC3)ccc1Cl (stereo not drawn) [Example 281, 1-(1-{3-[3-(4-Chloro-3-methyl-phenyl)-5-methanesulfonyl-4,5,6,7-tetrahydro-pyrazolo[4,3-c]pyridin-1-yl]-2-hydroxy-propyl}-piperidin-4-yl)-3-(2-morpholin-4-yl-ethyl)-1,3-dihydro-benzoimidazol-2-one]",330
17,"CN(C)c1ccc2c(n1)n(C1CCN(CCCn3nc(-c4ccc(C(F)(F)F)cc4)c4c3CCN(S(C)(=O)=O)C4)CC1)c(=O)n2C [Example 339, 5-Dimethylamino-3-(1-{3-[5-methanesulfonyl-3-(4-trifluoromethyl-phenyl)-4,5,6,7-tetrahydro-pyrazolo[4,3-c]pyridin-1-yl]-propyl}-piperidin-4-yl)-1-methyl-1,3-dihydro-imidazo[4,5-b]pyridin-2-one]",200
18,"Cc1cc(-c2nn(CC(O)CN3CCC(n4c(=O)[nH]c5ccccc54)CC3)c3c2CN(S(C)(=O)=O)CC3)ccc1Cl (stereo not drawn) [Example 270, 1-(1-{3-[3-(4-Chloro-3-methyl-phenyl)-5-methanesulfonyl-4,5,6,7-tetrahydro-pyrazolo[4,3-c]pyridin-1-yl]-2-hydroxy-propyl}-piperidin-4-yl)-1,3-dihydro-benzoimidazol-2-one]",40
19,"Cn1c(=O)n(C2CCN(CCCn3nc(-c4ccc(C(F)(F)F)cc4)c4c3CCN(C(=O)OCc3ccccc3)C4)CC2)c2ccccc21 [Example 345, 1-{3-[4-(3-Methyl-2-oxo-2,3-dihydro-benzoimidazol-1-yl)-piperidin-1-yl]-propyl}-3-(4-trifluoromethyl-phenyl)-1,4,6,7-tetrahydro-pyrazolo[4,3-c]pyridine-5-carboxylic acid benzyl ester]",550
20,"Cn1c(=O)n(C2CCN(CC(O)Cn3nc(-c4ccc(C(F)(F)F)cc4)c4c3CCN(S(C)(=O)=O)C4)CC2)c2ncccc21 (stereo not drawn) [Example 330, 3-(1-{2-Hydroxy-3-[5-methanesulfonyl-3-(4-trifluoromethyl-phenyl)-4,5,6,7-tetrahydro-pyrazolo[4,3-c]pyridin-1-yl]-propyl}-piperidin-4-yl)-1-methyl-1,3-dihydro-imidazo[4,5-b]pyridin-2-one]",60
21,"CC(=O)N1CCc2c(c(-c3ccc(Cl)c(C)c3)nn2C[C@H](O)CN2CCC(n3c(=O)[nH]c4ccccc43)CC2)C1 [Example 294, (R)-1-(1-{3-[5-Acetyl-3-(4-chloro-3-methyl-phenyl)-4,5,6,7-tetrahydro-pyrazolo[4,3-c]pyridin-1-yl]-2-hydroxy-propyl}-piperidin-4-yl)-1,3-dihydro-benzoimidazol-2-one]",280
22,"CC(=O)N1CCc2c(c(-c3ccc(I)cc3)nn2CC(O)CN2CCC(n3c(=O)[nH]c4ccc(C#N)cc43)CC2)C1 (stereo not drawn) [Example 268, 3-(1-{3-[5-Acetyl-3-(4-iodo-phenyl)-4,5,6,7-tetrahydro-pyrazolo[4,3-c]pyridin-1-yl]-2-hydroxy-propyl}-piperidin-4-yl)-2-oxo-2,3-dihydro-1H-benzoimidazole-5-carbonitrile]",300
23,"CS(=O)(=O)N1CCc2c(c(-c3ccc(C(F)(F)F)cc3)nn2CC(O)CN2CCC(c3nc4ccccc4o3)CC2)C1 (stereo not drawn) [Example 113, 1-(4-Benzooxazol-2-yl-piperidin-1-yl)-3-[5-methanesulfonyl-3-(4-trifluoromethyl-phenyl)-4,5,6,7-tetrahydro-pyrazolo[4,3-c]pyridin-1-yl]-propan-2-ol]",110
24,"CCS(=O)(=O)c1ccc(OCC(=O)OC)c(NC2CCN(CCCn3nc(-c4ccc(Br)cc4)c4c3CCN(C(N)=O)C4)CC2)c1 [Example 228, [2-(1-{3-[3-(4-Bromo-phenyl)-5-carbamoyl-4,5,6,7-tetrahydro-pyrazolo[4,3-c]pyridin-1-yl]-propyl}-piperidin-4-ylamino)-4-ethanesulfonyl-phenoxy]-acetic acid methyl ester]",170
